Literature values, collected in patent US20210340516A1, “COMPOSITIONS CONTAINING ARGINASE 1 FOR THE TREATMENT OF NEUROVASCULAR AND RETINAL VASCULAR DISORDERS” (Augusta University Research Institute, Inc., priority 2020, published 2021).

Conditions: cited from earlier work

B1: PEG-A1: recombinant human arginase (rhArg) covalently attached to methoxy polyethylene glycol (mPEG-SPA; MW 5,000) via succinamide propionic acid (SPA) linker (protein, UniProt P05089 1-322, looked up)
Arginase-1: MSAKSRTIGIIGAPFSKGQPRGGVEEGPTVLRKAGLLEKLKEQECDVKDYGDLPFADIPNDSPFQIVKNPRSVGKASEQLAGKVAEVKKNGRISLVLGGDHSLAIGSISGHARVHPDLGVIWVDAHTDINTPLTTTSGNLHGQPVSFLLKELKGKIPDVPGFSWVTPCISAKDIVYIGLRDVDPGEHYILKTLGIKYFSMTEVDRLGIGKVMEETLSYLLGRKKRPIHLSFDVDGLDPSFTPATGTPVVGGLTYREGLYITEEIYKTGLLSGLDIMEVNPSLGKTPEEVTRTVNTAVAITLACFGLAREGNHKPIDYLNPPK
modifications: mPEG-SPA 5 kDa conjugate
notes: recombinant human arginase (rhArg) covalently attached to methoxy polyethylene glycol (mPEG-SPA; MW 5,000) via succinamide propionic acid (SPA) linker
half-life in vivo: 72 h
